Assay results from US20220033448A1, “METHODS FOR AGGREGATION OF PROTEINS” (priority 2011, published 2022).
No end group written: not given here.

Test system: S. aureus MRSA 326
Experiment: Neutropenic-mouse thigh model
Details: neutropenic mice; two i.p. injections of 30 mg/kg; sacrificed 6 hours post-infection

RILLGLIRRGSRILLGLIRR [C30]
CFU reduction in thigh: no rapid effect on CFU reduction in thigh
